Measurements as given in US6849602B1, “Compositions for alleviating neuropathic pain with prosaposin receptor agonists” (The Regents of the University of California, priority 1996, dated 2005).

Columns and labels:
Chung model rats = experiment: Tactile allodynia (von Frey, 50% paw withdrawal threshold) after bolus intrathecal injection in Chung model rats; assay type: in vivo, rat; settings: any concentration tested
Description: This EXAMPLE describes the effects of bolus intrathecal injection of an active fragment of prosaposin in the Chung experimental model of peripheral neuropathic pain.
Each of the three peptides were obtained in pure form by chemical synthesis, dissolved in sterile PBS and buffered to a neutral pH.
The surgical procedure previously described by Kim and Chung, supra (1992) was performed on male Sprague-Dawley rats weighing 120 to 150 grams to induce an allodynic state. Briefly, the rats were anesthetized with halothane; subsequently, the left L-5 and L-6 spinal nerves were isolated adjacent to the vertebral column and ligated with 6.0 silk suture distal to the dorsal root ganglion.
After a ten to fourteen day post operative recovery period, a spinal catheter was introduced. Five days following the second surgery, intrathecal drug administration was accomplished using a gear driven micro-injection syringe connected to a spinal catheter inserted through the foramen magnum. Prior to testing, the rats were placed in clear plastic wire meshed cages and allowed to acclimate.
To assess the 50% mechanical threshold for paw withdrawal, a von Frey hair was applied to the hind foot avoiding the foot pad. […] The X-axis indicates the time after the injection at which point the hypersensitivity to pressure on the foot pad was measured.

[1] = Percentage of intact radiolabeled material in brain, liver and blood by HPLC; assay type: in vivo, rat
Description: In order to determine the percentage of intact material in the brain, liver and blood, radiolabeled material (SEQ ID NO:2) isolated from the tissues was analyzed by high pressure liquid chromatography. To normalize for degradation during processing of tissue homogenates, peptide SEQ ID NO:2 was added to tissue homogenates. The extent of degradation observed with the added peptide material was used to normalize for degradation during tissue processing. After normalization, the results were as follows: SEQ ID NO:2 was about 60% intact in brain; about 80% intact in liver and about 40% intact in blood. In a second experiment, peptide SEQ ID NO:2 was about 68% intact in brain.

[2] = In vivo tissue distribution / blood-brain barrier crossing of radiolabeled peptide SEQ ID NO:2; set-up: species or system rat
Description: The prosaposin-derived peptide SEQ ID NO:2 also was assayed for ability to cross the blood-brain barrier as follows. A female Sprague-Dawley rat was anesthesized with methoxyflurane, and approximately 20 μg peptide SEQ ID NO:2 (3.2×10^8 cpm) was injected into the tail vein. After 40 minutes, the rat was sacrificed by ether anesthesia and perfused with about 250 ml PBS through the heart. The total amount of peptide in brain, liver and blood was calculated as a percentage of the injected material as shown in TABLE 6. In order to determine the localization in brain, the capillary depletion method of Triguero, J. Neurochem. 54:1882 (1990) was used to separate brain tissue into a parenchyma fraction and a brain capillary fraction.
In a similar experiment in which rats were sacrificed after three hours treatment with SEQ ID NO:2, 0.06% of the peptide was evident in brain, of which 85% was in the parenchyma. […] The percentage of peptide which crossed the blood brain barrier is in the mid-range of peptides which cross the barrier as set forth in Banks, supra (1992).

[3] = 40 minutes, capillary depletion method
[4] = Blood, 40 minutes after tail vein injection
[5] = Liver, 40 minutes after tail vein injection

Cys-Glu-Phe-Leu-Val-Lys-Glu-Val-Thr-Lys-Leu-Ile-Asp-Asn-Asn-Lys-Thr-Glu-Lys-Glu-Ile-Leu [SEQ ID NO:1]
side effects such as sedation (Chung model rats): No significant side effects such as sedation were observed

Thr-D-Ala-Leu-Ile-Asp-Asn-Asn-Ala-Thr-Glu-Glu-Ile-Leu-Tyr [SEQ ID NO:2]
intact peptide in blood ([1]; HPLC, after normalization): about 40% | intact peptide in brain ([1]; HPLC, after normalization): about 60% | intact peptide in liver ([1]; HPLC, after normalization): about 80% | intact peptide in brain ([1]; second experiment): about 68% | peptide present in brain found in brain capillary [2, 3]: 13% | peptide present in brain localized to brain parenchyma [2, 3]: 87% | PERCENTAGE OF INITIAL CPM [2, 4]: 31.6% | TOTAL CPM IN TISSUE [2, 4]: 1.01 × 10^8 CPM | PERCENTAGE OF INITIAL CPM ([2]; Brain, 40 minutes after tail vein injection): 0.050% | TOTAL CPM IN TISSUE ([2]; Brain, 40 minutes after tail vein injection of 3.2×10^8 cpm): 161,000 CPM | PERCENTAGE OF INITIAL CPM [2, 5]: 1.625% | TOTAL CPM IN TISSUE [2, 5]: 5.2 × 10^6 CPM | brain peptide in the parenchyma ([2]; after three hours): 85% | peptide evident in brain ([2]; after three hours): 0.06% | side effects such as sedation (Chung model rats): No side effects were observed
